Test results reported in patent publication US9278990B2, “Substituted nucleotide analogs” (priority 2010, dated 2016).

System: HCV genotype 1b HCV replicon harbored in Huh7 cells
Assay: Combination testing in HCV replicon (CalcuSyn CI and MacSynergy II synergy volume)
Assay type: cell-based
Details: combination of compound 3b with the listed combination compound; MacSynergy II (Bliss independence); 72 h; 25-100 synergistic, >100 strongly synergistic
Procedure: Two or more test compounds were tested in combination with each other using an HCV genotype 1b HCV replicon harbored in Huh7 cells with a stable luciferase (LUC) reporter. Cells were cultured under standard conditions in Dulbecco's modified Eagle's medium (DMEM; Mediatech Inc, Herndon, Va.) containing 10% heat-inactivated fetal bovine serum (FBS; Mediatech Inc, Herndon, Va.) 2 mM L-glutamine, and nonessential amino acids (JRH Biosciences). HCV replicon cells were plated in a 96-well plate at a density of 10^4 cells per well in DMEM with 10% FBS. […] The cells were incubated with no compound as a control, with the test compounds, or the combination of compounds for 72 h. The direct effects of the combination of the test compounds were examined using a luciferase (LUC) based reporter as determined by the Bright-Glo Luciferase Assay (Promega, Madison, Wis.). Dose-response curves were determined for individual compounds and fixed ratio combinations of two or more test compounds.
The effects of test compound combinations were evaluated by two separate methods. In the Loewe additivity model, the experimental replicon data was analyzed by using CalcuSyn (Biosoft, Ferguson, Mo.), a computer program based on the method of Chou and Talalay. The program uses the experimental data to calculate a combination index (CI) value for each experimental combination tested. […]

In the case of CS(=O)(=O)Nc1ccc2c(c1)S(=O)(=O)N=C(C1=C(O)[C@@H]3[C@H]4CC[C@H](C4)[C@@H]3N(Cc3ccc(F)cc3)C1=O)N2 [ANA-598], the “Synergy Volume” value is reported as 161 μM^2%.
